ChEMBL document CHEMBL1124889, “Alfred Burger award address. Bioactive alkaloids. 4. Results of recent investigations with colchicine and physostigmine” (J Med Chem, 1990)

The chains behind the UniProt entries cited, without tags or fusion partners. Where a name states a change or a piece, a line headed by the entry shows the natural chain unless it says otherwise.
UniProt O42275: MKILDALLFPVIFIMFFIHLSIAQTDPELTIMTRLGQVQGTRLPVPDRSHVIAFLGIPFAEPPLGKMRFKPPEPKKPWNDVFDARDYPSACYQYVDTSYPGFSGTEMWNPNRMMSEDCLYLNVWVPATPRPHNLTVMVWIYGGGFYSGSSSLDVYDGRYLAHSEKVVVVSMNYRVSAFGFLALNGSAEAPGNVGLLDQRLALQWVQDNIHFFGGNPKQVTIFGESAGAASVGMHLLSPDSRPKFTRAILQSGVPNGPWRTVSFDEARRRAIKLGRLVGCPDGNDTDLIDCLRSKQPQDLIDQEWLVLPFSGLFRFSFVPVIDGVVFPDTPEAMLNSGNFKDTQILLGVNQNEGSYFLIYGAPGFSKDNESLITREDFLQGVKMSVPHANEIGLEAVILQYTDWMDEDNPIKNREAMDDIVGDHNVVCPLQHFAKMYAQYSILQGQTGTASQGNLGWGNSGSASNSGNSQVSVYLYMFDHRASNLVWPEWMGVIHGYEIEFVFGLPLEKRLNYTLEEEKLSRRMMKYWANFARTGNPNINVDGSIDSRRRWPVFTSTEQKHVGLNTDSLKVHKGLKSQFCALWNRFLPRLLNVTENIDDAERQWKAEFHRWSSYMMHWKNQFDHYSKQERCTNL

Target: Acetylcholinesterase (Electrophorus electricus, UniProt O42275)
Experiment: Inhibitory activity against Acetylcholinesterase in electric eel

`CNC(=O)Oc1ccc2c(c1)[C@]1(C)CCN[C@@H]1N2C` showed an IC50 of 57 nM.
